# Measured values reported in US20060115827A1, “Genetic markers for predicting disease and treatment outcome” (UNIVERSITY OF SOUTHERN CALIFORNIA, priority 2004, published 2006).
# Tested on: patients with metastatic CRC
# Conditions: human, in vivo
substance,measurement,value
cetuximab: Epidermal Growth Factor Receptor (EGFR) inhibitor; anti-EGFR antibody,Skin reactions observed,85%
same,Toxicity (rash) Grade 2,51%
same,Toxicity (rash) Grade 3,3%
